# Test results published in patent publication US10457707B2, “Substituted urea depsipeptide analogs as activators of the CLPP endopeptidase” (priority 2015, dated 2019).
# Assay: Solubility determination in DPBS (LC-MS/UV)
# Conditions: 100 uM nominal, the given compound itself
substance,measurement,value
"sodium (R)-1-((2R,6S,9S,11aS,17S,18S,20aS)-17-((S)-3-(3,5-difluorophenyl)-2-(3-(p-tolyl)ureido)propanamido)-2,6,10,18-tetramethyl-5,8,11,16,20-pentaoxohexadecahydro-1H,5H,16H-dipyrrolo[2,1-c:2′,1′-l][1]oxa[4,7,10,13]tetraazacyclohexadecin-9-yl)ethyl phosphate [Compound 193]","Solubility, Compound",114.6 ± 2.4 µM
